Assay results as given in patent CN116284408A (SUNSHINE GUOJIAN PHARMACEUTICAL SHANGHAI CO LTD, dated 2023).

Tests used:
[1] = biological target: MUC17 on LS174T colorectal cancer cells (human, UniProt Q685J3 26-4493); test: flow cytometry on LS174T cells, chimeric antibody titrated
人MUC17-Fc蛋白 = biological target: T1, 人MUC17-Fc蛋白 (human, UniProt Q685J3 4131-4390); test: ELISA, coated MUC17 antigen, chimeric antibody titrated
T1 construct: range 4131-4390; No linker is described; also called MUC17抗原; not shown: C-terminal Fc tag

Binder	EC50 [1] [nM]	EC50 (人MUC17-Fc蛋白) [nM]	Top (人MUC17-Fc蛋白) [OD450]
ch-42H4 (antibody, V domains shown) VH: QVQLQQSGAELVKPGASAKLSCKASGYTFNSNYIYWVKQRPGQGLEWIGEIKPTNGVTNFNEKFKTKATLTVDKSSSTAYMQLTSLTSEDSAVYYCTRGFSLLRLQGYAMDDWGQGTSVTVSS VL: not shown	10.3	2650	7.58
ch-51E12 (antibody, V domains shown) VH: QVQLQQSGPELVKPGASVKISCKVSGNAFSLSWMNWVKQRPGQGLEWIGRIYPGDGDSNYNGKFKGKATLTADKSSSTVFMQLSSLTSVDSAVYFCANYYGSSSWFVYWGQGTLVTVSA VL: DVVMTQTPLSLPVSLGDQASISCRSSQSLVHSYGNTYLHWYLQKPGQSPKLLIYKVSNRFSGVPDRFSGSGSGTDFTLKISRVETEDLGVYFCSQSTHFPWTFGGGTKLEIKR		0.218	2.31

Binders with a lower EC50 (人MUC17-Fc蛋白), results first:

EC50 [1] [nM]	EC50 (人MUC17-Fc蛋白) [nM]	Top (人MUC17-Fc蛋白) [OD450]	Binder
1.76	0.116	2.53	ch-8H2 (antibody, V domains shown) VH: EVNLVESGGGLVKPGGSLKLSCAASGFAFSNYDMSWVRQTPEKRLEWVATISGGGSYTYYPDNVKGRFTISRDNAMNTLYLQMSSLRSEDTALYYCASVNWGFPYWGQGTLVTVSA VL: DIVMSQSPSSLAVSIGEKVTMSCKSSQSLLYSRNQKNYLAWYQQKPGQSPILLIYWTSTRESGVPDRFTGSGSGTDFTLTISGVKAEDLAVYYCQQYYTSPWTFGGGTRLEIKR
	0.123	2.52	ch-45D1 (antibody, V domains shown) VH: EMQLVESGGDLVKPGGSLKLSCAVSGFTFSTYDMSWIRQTPDKRLEWVATISSGGSYTYYPDSVKGRFTISRDNAKNTLYLQMSSLQSEDTAIYYCASLNWGFDHWGQGTTLTVSS VL: not shown
	0.117	2.46	ch-15D10 (antibody, V domains shown) VH: QVQLQQPGAELVKPGASVKMSCKASGYTFTTYWMHWVKQRSGQGLEWIGVIDPSDSYTRYNQKFKDKATLTVDTSSSTAYMHLTSLTSEDSAVYYCTRSGIGNSFIMDYWGQGTSVTVSS VL: QVVLTQSPAIMPAFPGEKVTISCSASSSVIYMFWYQQKPGSSPKPWIYRTSNLASGVPARFTGSGSGTSYSLTISSMEAEDAATYYCQQYHSYPLTFGVGTKLELKR
